Structures are written as SMILES.

The chains behind the UniProt entries cited, without tags or fusion partners. Residues count along the entry.
UniProt P18031, 1-299 limits assumed: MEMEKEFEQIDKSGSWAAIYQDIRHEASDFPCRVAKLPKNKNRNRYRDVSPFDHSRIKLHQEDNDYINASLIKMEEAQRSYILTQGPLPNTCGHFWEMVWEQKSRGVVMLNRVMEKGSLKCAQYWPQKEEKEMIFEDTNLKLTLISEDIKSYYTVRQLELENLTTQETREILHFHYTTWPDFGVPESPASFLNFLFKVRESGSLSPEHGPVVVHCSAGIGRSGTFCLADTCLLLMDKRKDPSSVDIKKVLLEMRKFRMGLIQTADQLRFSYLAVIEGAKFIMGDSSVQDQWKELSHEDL

From patent US7741491B2, “Diphenylamine-substituted salicylthiazole derivatives and related compounds as phosphotyrosine phosphatase 1B (PTB1B) inhibitors for using as blood-sugar decreasing active ingredients for treating diabetes” (Sanofi-Aventis Deutschland GmbH, priority 2004, dated 2010) come the findings set out here.

For this assay, the target named is human PTP1B (Homo sapiens, UniProt P18031). The experiment in a line: PTP Assay PTP1B DiFMUP (enzymatic test for inhibition of a phosphatase). Type of assay: biochemical. Conditions: read-out: IC-50 (μM) PTP Assay PTP1B DiFMUP; recombinant hPTP1B (aa 1-299, expressed in Sf9 cells); substrate DiFMUP per table head.
Consider `COc1ccc(Nc2nc(-c3ccc(O)c(C(=O)O)c3)cs2)cc1-c1ccccc1`, for which the IC50 came out at 2.1 µM.

As to `CS(=O)(=O)Nc1ccccc1-c1ccc(Nc2nc(-c3ccc(O)c(C(=O)O)c3)cs2)cc1`, the IC50 came out at 3.8 µM.

On to `Cc1sc(Nc2ccc(-c3ccccc3)cc2)nc1-c1ccc(O)c(C(=O)O)c1`, for which the IC50 was 1.9 µM.

Consider `CCNC(=O)c1cccc(-c2ccc(Nc3nc(-c4ccc(O)c(C(=O)O)c4)cs3)cc2)c1`, for which the IC50 was determined as 2.8 µM.

For the molecule `COc1c(Nc2nc(-c3ccc(O)c(C(=O)O)c3)cs2)cccc1-c1ccccc1`, the IC50 came to 2.6 µM.

`O=C(O)c1cc(-c2csc(Nc3ccc(-c4ccc5c(c4)OCO5)cc3)n2)ccc1O`: the IC50 was 0.7 µM.

In the case of `O=C(O)c1cc(-c2csc(Nc3cccc(-c4ccccc4)c3)n2)ccc1O`, the IC50 turned out to be 3.6 µM.

As to `O=C(O)c1cc(-c2csc(Nc3ccc(Cc4ccccc4)cc3)n2)ccc1O`, the IC50 was 2.8 µM.

For the molecule `O=C(O)c1ccc(-c2cccc(Nc3nc(-c4ccc(O)c(C(=O)O)c4)cs3)c2)cc1`, the IC50 was 15 µM.

On to `O=C(Nc1nc(-c2ccc(O)c(C(=O)O)c2)cs1)c1ccc(Oc2ccccc2)cc1`, for which the IC50 was 3.5 µM.

With `O=C(O)c1cc(-c2csc(Nc3ccc(-c4ccccc4)c(C(=O)O)c3)n2)ccc1O`, the IC50 was determined as 20.7 µM.

Regarding `CS(=O)(=O)Nc1cccc(-c2ccc(Nc3nc(-c4ccc(O)c(C(=O)O)c4)cs3)cc2)c1`, the IC50 amounted to 5 µM.

`O=C(O)c1cc(-c2csc(Nc3ccc(-c4ccccc4F)cc3)n2)ccc1O`: the IC50 is 1.1 µM.

As for `CCCNC(=O)c1cccc(-c2ccc(Nc3nc(-c4ccc(O)c(C(=O)O)c4)cs3)cc2)c1`, the IC50 came to 2.5 µM.
